# Earlier results, collected in publication PMC5296733, “Functional Coupling of Human Microphysiology Systems: Intestine, Liver, Kidney Proximal Tubule, Blood-Brain Barrier and Skeletal Muscle” (Scientific Reports, 2017).
# Conditions: Table 2, clinical; cited from earlier work
compound,measurement,value
"CC(C)(C(=O)O)c1ccc(C(O)CCCN2CCC(C(O)(c3ccccc3)c3ccccc3)CC2)cc1 (stereo not shown) [Fexofenadine, fexofenadine, reference compound]","Intestine fate, Clinical",Fex CounterTrans
